Earlier results on one sequence are cited in patent US20200216492A1, “USE OF C-TERMINALLY EXTENDED PEPTIDES TO DISRUPT INHIBITOR NK CELL RECEPTOR INTERACTIONS WITH MHC I” (La Jolla Institute for Allergy and Immunology, priority 2016, published 2020).

As usually defined, the Kd is the constant that tells how readily two partners part at equilibrium.

For this series, the target named is TCR DMF5. The note with it: peptide presented by HLA-A2*02:01, read-out: TCR affinity KD; cited from earlier work.

Turning to AAGIGILTV, the Kd was 40 µM.
